ChEMBL document CHEMBL2010643 (Bioorg Med Chem Lett, 2012)

Sequences of proteins named here, by UniProt entry; tags and fusion partners are left off. A change or cut given only in a name is not applied to a line headed by its entry.
UniProt Q9H422: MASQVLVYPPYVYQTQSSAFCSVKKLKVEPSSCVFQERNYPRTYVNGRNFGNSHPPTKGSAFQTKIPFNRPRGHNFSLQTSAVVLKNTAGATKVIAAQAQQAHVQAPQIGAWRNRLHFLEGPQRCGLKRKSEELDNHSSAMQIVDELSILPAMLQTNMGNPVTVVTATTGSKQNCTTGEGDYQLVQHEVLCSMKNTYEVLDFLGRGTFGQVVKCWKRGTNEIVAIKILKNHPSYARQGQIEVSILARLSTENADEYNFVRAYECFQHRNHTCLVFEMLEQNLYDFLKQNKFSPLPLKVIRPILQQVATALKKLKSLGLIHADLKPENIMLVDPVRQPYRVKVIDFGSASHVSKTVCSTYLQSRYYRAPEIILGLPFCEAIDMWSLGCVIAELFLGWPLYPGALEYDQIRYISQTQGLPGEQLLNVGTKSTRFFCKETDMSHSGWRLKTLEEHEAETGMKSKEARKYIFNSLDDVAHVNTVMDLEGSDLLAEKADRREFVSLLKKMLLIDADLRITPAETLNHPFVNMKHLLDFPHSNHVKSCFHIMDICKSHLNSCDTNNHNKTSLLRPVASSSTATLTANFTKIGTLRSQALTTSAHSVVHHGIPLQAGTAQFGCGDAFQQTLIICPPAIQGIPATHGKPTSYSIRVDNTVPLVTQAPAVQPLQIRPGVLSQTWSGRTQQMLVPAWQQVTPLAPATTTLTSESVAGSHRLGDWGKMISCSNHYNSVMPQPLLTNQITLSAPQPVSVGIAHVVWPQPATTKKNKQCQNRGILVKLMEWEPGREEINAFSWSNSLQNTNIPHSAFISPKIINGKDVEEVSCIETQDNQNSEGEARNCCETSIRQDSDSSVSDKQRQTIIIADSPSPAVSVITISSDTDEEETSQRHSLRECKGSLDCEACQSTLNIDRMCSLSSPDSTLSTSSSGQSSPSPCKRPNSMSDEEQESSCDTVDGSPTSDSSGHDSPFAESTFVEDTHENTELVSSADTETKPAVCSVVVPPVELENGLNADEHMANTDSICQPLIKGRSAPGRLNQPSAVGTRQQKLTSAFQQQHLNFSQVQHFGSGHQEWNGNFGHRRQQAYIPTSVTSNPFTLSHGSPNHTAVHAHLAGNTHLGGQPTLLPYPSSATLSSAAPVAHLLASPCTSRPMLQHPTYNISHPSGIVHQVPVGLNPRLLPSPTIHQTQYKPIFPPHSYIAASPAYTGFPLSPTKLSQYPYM

Molecular target: Homeodomain-interacting protein kinase 3 (Homo sapiens) (UniProt Q9H422)
Assay: Inhibition of HIPK3 assessed as residual activity at 1 uM relative to control

Activity: 81%
Compound: COc1cc(N2CCC(N3CCN(C)CC3)CC2)ccc1Nc1ncc(Cl)c(Nc2ccccc2S(=O)(=O)C(C)C)n1 [TAE-684]
